As usually defined, the AC50 is the concentration giving half of the maximal activity seen.

By UniProt entry, the sequences of proteins in these tests, tags left out.
UniProt P10635, whole entry, looked up: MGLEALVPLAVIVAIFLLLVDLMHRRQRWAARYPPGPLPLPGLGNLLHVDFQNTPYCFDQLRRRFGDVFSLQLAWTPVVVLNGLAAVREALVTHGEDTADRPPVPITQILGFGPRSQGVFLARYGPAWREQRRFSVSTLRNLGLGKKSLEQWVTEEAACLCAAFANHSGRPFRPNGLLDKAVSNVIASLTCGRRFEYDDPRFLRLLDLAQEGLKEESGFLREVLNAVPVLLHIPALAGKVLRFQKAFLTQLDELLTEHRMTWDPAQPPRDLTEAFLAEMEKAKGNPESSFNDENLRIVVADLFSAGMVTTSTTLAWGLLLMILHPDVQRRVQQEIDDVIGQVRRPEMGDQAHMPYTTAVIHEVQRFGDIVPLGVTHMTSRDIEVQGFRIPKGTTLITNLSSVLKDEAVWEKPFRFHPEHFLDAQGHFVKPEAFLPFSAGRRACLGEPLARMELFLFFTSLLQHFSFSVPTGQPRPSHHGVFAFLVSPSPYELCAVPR

This is an account of results in PubChem BioAssay AID1851 (National Center for Advancing Translational Sciences (NCATS), 2009).

Molecules are shown by their SMILES. This list holds what a sample rich in hits left over. Inconclusive results are not listed. Calls of active or inactive are those of the source. Calls come from the whole dose curve; as a rule, active = well fitted curve in the direction sought with a large enough effect; inconclusive = small, poorly fitted or top-dose-only effect, or effect the other way; inactive = no such curve, though single readings can be large or run the other way.
% is set by controls: 0 for no effect and ±100 for the full control effect.

This experiment deals with Cytochrome P450 2D6 (Homo sapiens) (UniProt P10635). Put plainly: Cytochrome panel assay with activity outcomes. The note with it: recombinant CYP, pro-luciferin dealkylation, luminescence, p450-cyp2d6; series mostly up to 57.1 µM; activity, negative = inhibition: at the top concentration.
With `Cn1c(=O)c(-c2ccccc2)nc2cnc(Nc3ccccc3)nc21`, the “activity, negative = inhibition” value is inactive: -0.389%.

Consider `Cc1nc2cnc(Nc3ccccc3)nc2n(CCC#N)c1=O`, for which the “activity, negative = inhibition” value was inactive: -0.0915%.

On to `COCCn1c(=O)c(-c2ccccc2)nc2cncnc21`, for which the “activity, negative = inhibition” value is inactive: 4.41%.

With `O=C(c1csnn1)N1CCC[C@@]2(CCN(c3ncccn3)C2)C1`, the “activity, negative = inhibition” value is inactive: -7.79%.

`Cn1c(=O)cnc2cnc(Oc3ccccc3)nc21`: the “activity, negative = inhibition” value was inactive: -7.9%.

On to `O=C(c1cnccn1)N1CCC2(CCCN(c3ccc(-c4ccccc4)cc3)C2)CC1`, for which the “activity, negative = inhibition” value was inactive: -2.54%.

`Cc1nc2cnc(Oc3ccccc3)nc2n(CCC#N)c1=O`: the “activity, negative = inhibition” value is inactive: -0.899%.

As to `Cn1cccc1C(=O)N1CCC2(CCCN(c3ccc(-c4ccccc4)cc3)C2)CC1`, the “activity, negative = inhibition” value is inactive: -3.17%.

Consider `COCCn1c(=O)c(CCc2ccccc2)nc2cncnc21`, for which the “activity, negative = inhibition” value is inactive: -17.9%.

Regarding `COCCn1c(=O)c(-c2ccccc2)nc2cnc(Oc3ccc(OC)cc3)nc21`, the “activity, negative = inhibition” value was inactive: -7.33%.

Take `O=C(Nc1cccc(F)c1)N1CC2(CCN(C(=O)c3csnn3)CC2)C1`: the “activity, negative = inhibition” value is inactive: -8.07%.

In the case of `N#CCCn1c(=O)c(-c2ccc(Cl)cc2)nc2cnc(OCc3ccccc3)nc21`, the “activity, negative = inhibition” value is inactive: 0.39%.

Regarding `CC(C)NC(=O)N1CC[C@@]2(CCCN(C(=O)c3cccc(F)c3)C2)C1`, the “activity, negative = inhibition” value is inactive: 5.96%.

Turning to `O=C(Nc1cccc(F)c1)N1CC[C@@]2(CCCN(C(=O)c3ccco3)C2)C1`, the “activity, negative = inhibition” value was inactive: -3.89%.

As for `CC(C)NC(=O)N1CCC2(CC1)CCN(C(=O)c1csnn1)CC2`, the “activity, negative = inhibition” value was inactive: 3.59%.

Take `COc1cccc(Nc2ncc3ncc(=O)n(CCc4ccccc4)c3n2)c1`: the “activity, negative = inhibition” value is inactive: -2.07%.

Regarding `O=c1cnc2cnc(Nc3ccccc3)nc2n1Cc1ccc(F)cc1`, the “activity, negative = inhibition” value was inactive: 2.92%.

For the compound `COc1ccc(-n2c(=O)c(-c3cccs3)nc3cnc(Nc4ccccc4)nc32)cc1`, the “activity, negative = inhibition” value is inactive: 11%.

Take `C#C[C@]1(O)CC[C@@H]2[C@H]3CCC4=Cc5oncc5C[C@]4(C)[C@@H]3CC[C@@]21C`: the half-maximal activity concentration (AC50) was active: 10 µM.

Consider `O=C(c1ccco1)N1CCC2(CC1)CCN(c1cccc(-c3ccccc3)c1)CC2`, for which the “activity, negative = inhibition” value was inactive: -5.71%.

For `Cc1nc2cnc(OCc3ccccc3)nc2n(Cc2ccc(F)cc2)c1=O`, the “activity, negative = inhibition” value is inactive: -4.11%.

Turning to `Cn1c(=O)c(-c2cccs2)nc2cnc(OCc3ccccc3)nc21`, the “activity, negative = inhibition” value was inactive: 4.38%.

With `O=C(Nc1cccc(F)c1)N1CCCC2(CCN(C(=O)c3ccncc3)CC2)C1`, the “activity, negative = inhibition” value was inactive: -12.6%.

`Cc1nc2cnc(Nc3ccccc3)nc2n(C2CC2)c1=O`: the “activity, negative = inhibition” value was inactive: 2.88%.

For the compound `COc1cccc(Nc2ncc3nc(C)c(=O)n(C)c3n2)c1`, the “activity, negative = inhibition” value was inactive: 0.899%.

On to `COCCn1c(=O)c(CCc2ccccc2)nc2cnc(Oc3ccc(OC)cc3)nc21`, for which the “activity, negative = inhibition” value was inactive: -7.64%.

Consider `COCCn1c(=O)c(-c2ccc(F)cc2)nc2cnc(Nc3cccc(OC)c3)nc21`, for which the “activity, negative = inhibition” value is inactive: -14.3%.

For the compound `CCNc1ncc2ncc(=O)n(Cc3cccc(OC)c3)c2n1`, the “activity, negative = inhibition” value was inactive: -13.3%.
